Source: patent publication US12202828B2, “Bicyclic heterocycle compounds and their uses in therapy” (ASTEX THERAPEUTICS LIMITED, priority 2013, dated 2025)

B1: Interferon-β (protein, UniProt P01574 22-187, looked up)
Interferon beta: MSYNLLGFLQRSSNFQCQKLLWQLNGRLEYCLKDRMNFDIPEEIKQLQQFQKEDAALTIYEMLQNIFAIFRQDSSSTGWNETIVENLLANVYHQINHLKTVLEEKLEKEDFTRGKLMSSLHLKRYYGRILHYLKAKEYSHCAWTIVRVEILRNFYFINRLTGYLRN

System: SK-MEL-28
Assay: Combination protocol for apoptosis, SK-MEL-28
Type: cell-based, human
Conditions: for % Apoptosis Combination: agent 500 u/ml with Example 2 0.1 μM + 1 ng/ml TNF-α, 24 h; for Fold Increase: combination (agent 500 u/ml) relative to Example 2 0.1 μM + TNF-α alone
Text: No increase in apoptosis was seen over this time scale with the combination agent shown in the first column of the table alone (with or without TNF-α)—data not shown.

Molecule	% Apoptosis Combination	Fold Increase
Interferon-α2	53.9%	1.3
B1	70.9%	1.7
